Experimental data from patent US9169254B2, “Spiroimidazolone derivative” (Chugai Seiyaku Kabushiki Kaisha, priority 2009, dated 2015).

Protein sequences, listed by entry. Tags and fused reporters are not part of them. Residues count along the entry.
UniProt Q03431, 27-593 limits assumed: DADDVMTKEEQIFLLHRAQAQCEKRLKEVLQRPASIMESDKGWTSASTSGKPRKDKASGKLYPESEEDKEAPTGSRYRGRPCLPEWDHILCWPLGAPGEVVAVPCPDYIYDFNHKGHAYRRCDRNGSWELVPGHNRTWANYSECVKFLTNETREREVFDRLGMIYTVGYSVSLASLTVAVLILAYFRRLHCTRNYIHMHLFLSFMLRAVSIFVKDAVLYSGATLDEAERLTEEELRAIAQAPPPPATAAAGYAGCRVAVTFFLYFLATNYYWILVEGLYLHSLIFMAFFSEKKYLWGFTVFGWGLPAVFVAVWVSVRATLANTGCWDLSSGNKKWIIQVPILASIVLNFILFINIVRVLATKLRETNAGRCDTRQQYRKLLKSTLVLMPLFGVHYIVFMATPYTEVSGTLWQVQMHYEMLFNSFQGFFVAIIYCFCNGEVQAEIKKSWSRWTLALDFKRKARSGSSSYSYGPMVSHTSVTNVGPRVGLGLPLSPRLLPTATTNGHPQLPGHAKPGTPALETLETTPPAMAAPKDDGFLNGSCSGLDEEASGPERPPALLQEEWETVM

Target: human PTH1 receptor (Homo sapiens, UniProt Q03431)
Assay: In vitro cAMP signal activity in HKRK-B7 cells (LLC-PK1 cells overexpressing the human PTH1 receptor)
Type: cell-based
Conditions: compound at 1×10^−3 M, cAMP produced as percentage of that produced by hPTH(1-34) at 100 nM

SMILES: CC(=O)N(c1ccc(/C=C/S(=O)(=O)N2CCC3(CC2)N=C(c2cccc(OC(F)(F)F)c2)NC3=O)c(C)c1)C1CCN(C)CC1
- cAMP production activity (%): 8.3%

Only a part of the results on these compounds is given; other tests are left out.
